Measured values as given in US8003669B2, “Remedy for sleep disturbance” (Mitsubishi Tanabe Pharma Corporation, priority 2002, dated 2011).

Sequences of proteins named here, by UniProt entry; tags and fusion partners are left off.
UniProt P35370, whole entry: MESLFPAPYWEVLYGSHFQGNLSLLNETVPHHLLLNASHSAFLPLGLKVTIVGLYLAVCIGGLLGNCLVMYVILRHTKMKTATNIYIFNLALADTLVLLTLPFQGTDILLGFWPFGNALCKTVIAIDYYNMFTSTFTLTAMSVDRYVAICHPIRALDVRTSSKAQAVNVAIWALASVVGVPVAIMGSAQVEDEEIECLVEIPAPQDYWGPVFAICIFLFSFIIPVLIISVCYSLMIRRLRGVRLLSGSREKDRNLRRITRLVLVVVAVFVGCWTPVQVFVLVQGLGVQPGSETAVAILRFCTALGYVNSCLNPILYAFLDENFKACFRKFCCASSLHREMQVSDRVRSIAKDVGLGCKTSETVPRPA
UniProt P41146, whole entry: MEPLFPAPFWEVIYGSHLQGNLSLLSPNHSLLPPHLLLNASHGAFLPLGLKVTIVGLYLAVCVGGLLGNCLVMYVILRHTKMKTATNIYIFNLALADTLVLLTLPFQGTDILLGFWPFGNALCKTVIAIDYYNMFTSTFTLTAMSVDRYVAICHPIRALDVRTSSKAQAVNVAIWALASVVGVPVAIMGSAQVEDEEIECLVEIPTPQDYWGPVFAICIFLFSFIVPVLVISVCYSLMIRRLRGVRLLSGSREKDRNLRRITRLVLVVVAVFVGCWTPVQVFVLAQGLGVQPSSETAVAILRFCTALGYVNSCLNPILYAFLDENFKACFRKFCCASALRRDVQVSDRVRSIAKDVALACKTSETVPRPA

Assays:
ORL-1 receptor = ORL-1 receptor (Rattus norvegicus, UniProt P35370); test: ORL-1 receptor binding test ([3H]-nociceptin); conditions: receptor prepared from cerebral cortex of rat
human ORL-1 receptor = human ORL-1 receptor (Homo sapiens, UniProt P41146); test: Agonist action: inhibition of forskolin-stimulated cAMP elevation in HEK293 cells; assay type: cell-based; conditions: HEK293 cells expressing human ORL-1 receptor, forskolin 1 μmol/L
rats [1] = test: Antagonistic action of the ORL-1 receptor antagonist on the phase advancement by the ORL-1 receptor agonist; assay type: in vivo, rat; conditions: constant dark, agonist intraperitoneally at CT6, compound D orally 1 hour before
rats [2] = test: Phase shift of circadian rhythm by the ORL-1 receptor agonist under a constant dark condition; conditions: intraperitoneal, administered at CT6 or CT9

`O=c1[nH]c2ccccc2n1C1CCN([C@@H]2Cc3cccc4cccc2c34)CC1` was tested, and the IC50 (ORL-1 receptor; read-out: IC50 value, inhibition of the binding of [3H]-nociceptin, 25° C., 20 minutes) was 0.0728 µM, the Ki (ORL-1 receptor; read-out: Ki value, inhibition of the binding of [3H]-nociceptin, Ki=IC50/(1+L/Kd)) was 0.0084 µM and the “inhibition of cAMP production (ORL-1 receptor agonistic activity)” value (human ORL-1 receptor) was “inhibited cAMP production depending on concentration”. For the same compound, the “phase advancement by the agonist after pre-administration of test compound D” value (rats [1]) was “antagonized by pre-administration of the test compound D” and the “phase shift of body-temperature circadian rhythm” value (rats [2]) was “noticeable phase advancing action”.

Only a part of the results on these compounds is given; other tests are left out.
